# How the values were obtained:
# [1] = target: (IL-2Rβ)2; conditions: read-out: K d of IL-2 for free (IL-2Rβ)2 complexes; stated in discussion; cited from earlier work
# [2] = test system: Jak2; assay: Jak2 tyrosine phosphorylation, immunoprecipitation/Western blot in Kit 225 cells; assay type: cell-based, human; conditions: Kit 225 cells stimulated 10 min; IL-2 10 nM, p1–30 60 μM
# [3] = test system: PBMCs; assay: PBMC proliferation; assay type: cell-based; conditions: human PBMCs, IL-2 0.5 nM or p1–30 3–100 μM, 3 or 6 d
# [4] = test system: PBMC subsets (CD4, CD8, CD20, CD56); assay: CD69 expression on PBMC subsets; assay type: cell-based, human; conditions: PBMCs stimulated with IL-2 (0.5 nM) or p1–30 (10, 30 or 100 μM) for 1, 2 or 3 d
# [5] = test system: TS1β cells (TS1 cells transfected with human IL-2Rβ); assay: TS1β cell proliferation assay; assay type: cell-based, murine
# [6] = test system: p56^lck; assay: p56lck in vitro kinase assay; assay type: cell-based, human; conditions: Kit 225 cells stimulated 15 min with 10 nM IL-2 or 60 μM p1–30
# [7] = test system: Shc; assay: Shc tyrosine phosphorylation, Western blot in Kit 225 cells; assay type: cell-based, human; conditions: p1–30 60 μM for 1–15 min, IL-2 for 5 min
# [8] = test system: Jak1; assay: Jak1 tyrosine phosphorylation, immunoprecipitation/Western blot in Kit 225 cells; assay type: cell-based, human; conditions: Kit 225 cells stimulated 10 min; IL-2 10 nM, p1–30 60 μM
# [9] = target: high affinity IL-2R (all three chains); conditions: read-out: K d for high affinity IL-2R; expression of all three chains; cited from earlier work
# [10] = test system: Jak3; assay: Jak3 tyrosine phosphorylation, immunoprecipitation/Western blot in Kit 225 cells; assay type: cell-based, human; conditions: Kit 225 cells stimulated 10 min; IL-2 10 nM, p1–30 60 μM
substance,measurement,setting,value
IL-2: human rIL-2 (Chiron),Kd,[1],100 nM
same,Jak2 activation,[2],unable to activate Jak2
same,PBMC proliferation over time,[3],more efficient by day 3 but declined by day 6
same,CD69 expression on PBMC subsets,[4],induced CD69 expression on these populations
same,proliferative response ([3H]TdR incorporation),[5]; 1 nM IL-2 alone,"38,148 cpm"
same,proliferative response ([3H]TdR incorporation),[5]; 10 nM IL-2 alone,"72,370 cpm"
same,p56^lck kinase activity (enolase phosphorylation),[6],induced the kinase activity of p56^lck
same,"Shc (p47, p52) phosphorylation",[7],induced Shc phosphorylation
same,Jak1 phosphorylation,[8],induced the phosphorylation
same,Kd,[9],~0.01 nM
same,Jak3 phosphorylation,[10],induced the phosphorylation

# Source: PMC2195822 (The Journal of Experimental Medicine, 2000)
